Measurements as given in US20230000870A1, “METHODS OF TREATING CANCER IN BIOMARKER-IDENTIFIED PATIENTS WITH INHIBITORS OF CYCLIN-DEPENDENT KINASE 7 (CDK7)” (Syros Pharmaceuticals, Inc., priority 2019, published 2023).

By UniProt entry, the sequences of proteins in these tests, tags left out. Residues count along the entry.
UniProt P50613, whole entry: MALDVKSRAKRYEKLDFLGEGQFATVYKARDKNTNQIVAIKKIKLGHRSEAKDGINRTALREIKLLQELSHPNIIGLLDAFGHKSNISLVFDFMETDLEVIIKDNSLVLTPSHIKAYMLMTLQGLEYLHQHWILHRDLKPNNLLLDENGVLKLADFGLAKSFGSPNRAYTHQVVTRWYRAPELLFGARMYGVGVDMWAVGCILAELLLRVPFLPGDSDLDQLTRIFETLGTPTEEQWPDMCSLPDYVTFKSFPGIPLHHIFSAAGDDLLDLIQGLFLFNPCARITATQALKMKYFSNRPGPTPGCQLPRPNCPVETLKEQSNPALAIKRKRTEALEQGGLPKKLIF
UniProt P50750, whole entry: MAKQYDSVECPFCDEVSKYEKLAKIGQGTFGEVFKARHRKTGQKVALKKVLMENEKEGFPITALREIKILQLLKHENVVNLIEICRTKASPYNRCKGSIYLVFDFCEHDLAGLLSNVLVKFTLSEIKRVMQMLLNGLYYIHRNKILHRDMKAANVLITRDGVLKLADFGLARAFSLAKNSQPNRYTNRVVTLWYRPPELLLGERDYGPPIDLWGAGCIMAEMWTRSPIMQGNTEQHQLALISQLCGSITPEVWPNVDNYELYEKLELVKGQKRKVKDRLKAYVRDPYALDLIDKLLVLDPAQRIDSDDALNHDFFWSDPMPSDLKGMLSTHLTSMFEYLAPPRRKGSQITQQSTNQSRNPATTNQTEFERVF
UniProt Q9NYV4, 686-1082 limits assumed: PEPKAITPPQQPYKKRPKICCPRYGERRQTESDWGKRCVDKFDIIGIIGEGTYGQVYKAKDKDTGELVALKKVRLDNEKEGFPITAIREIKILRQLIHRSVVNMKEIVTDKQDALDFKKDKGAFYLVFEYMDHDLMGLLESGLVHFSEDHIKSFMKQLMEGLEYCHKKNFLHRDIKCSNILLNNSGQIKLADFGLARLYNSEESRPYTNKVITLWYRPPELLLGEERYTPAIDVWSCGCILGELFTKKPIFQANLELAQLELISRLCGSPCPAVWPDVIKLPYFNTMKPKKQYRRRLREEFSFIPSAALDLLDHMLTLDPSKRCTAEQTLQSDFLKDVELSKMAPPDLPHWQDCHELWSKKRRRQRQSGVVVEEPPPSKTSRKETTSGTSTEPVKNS
UniProt P51946, whole entry partner: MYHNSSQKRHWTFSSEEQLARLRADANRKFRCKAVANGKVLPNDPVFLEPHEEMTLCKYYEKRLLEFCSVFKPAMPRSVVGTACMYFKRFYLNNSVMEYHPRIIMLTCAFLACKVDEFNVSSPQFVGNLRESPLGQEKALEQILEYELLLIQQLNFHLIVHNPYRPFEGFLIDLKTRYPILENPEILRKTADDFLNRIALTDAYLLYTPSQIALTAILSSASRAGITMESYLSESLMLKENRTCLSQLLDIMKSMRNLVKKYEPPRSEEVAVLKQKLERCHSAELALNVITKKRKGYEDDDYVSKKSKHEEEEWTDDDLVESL
UniProt P51948, whole entry partner: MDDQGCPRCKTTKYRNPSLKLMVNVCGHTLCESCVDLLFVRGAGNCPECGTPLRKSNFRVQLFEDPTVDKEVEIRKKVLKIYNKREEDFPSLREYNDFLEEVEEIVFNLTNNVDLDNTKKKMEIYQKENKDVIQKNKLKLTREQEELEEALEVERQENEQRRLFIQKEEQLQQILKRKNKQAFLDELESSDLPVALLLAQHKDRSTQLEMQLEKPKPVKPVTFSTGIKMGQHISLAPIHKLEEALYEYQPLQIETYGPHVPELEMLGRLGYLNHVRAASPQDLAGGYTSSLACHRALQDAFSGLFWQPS
UniProt O75909, whole entry partner: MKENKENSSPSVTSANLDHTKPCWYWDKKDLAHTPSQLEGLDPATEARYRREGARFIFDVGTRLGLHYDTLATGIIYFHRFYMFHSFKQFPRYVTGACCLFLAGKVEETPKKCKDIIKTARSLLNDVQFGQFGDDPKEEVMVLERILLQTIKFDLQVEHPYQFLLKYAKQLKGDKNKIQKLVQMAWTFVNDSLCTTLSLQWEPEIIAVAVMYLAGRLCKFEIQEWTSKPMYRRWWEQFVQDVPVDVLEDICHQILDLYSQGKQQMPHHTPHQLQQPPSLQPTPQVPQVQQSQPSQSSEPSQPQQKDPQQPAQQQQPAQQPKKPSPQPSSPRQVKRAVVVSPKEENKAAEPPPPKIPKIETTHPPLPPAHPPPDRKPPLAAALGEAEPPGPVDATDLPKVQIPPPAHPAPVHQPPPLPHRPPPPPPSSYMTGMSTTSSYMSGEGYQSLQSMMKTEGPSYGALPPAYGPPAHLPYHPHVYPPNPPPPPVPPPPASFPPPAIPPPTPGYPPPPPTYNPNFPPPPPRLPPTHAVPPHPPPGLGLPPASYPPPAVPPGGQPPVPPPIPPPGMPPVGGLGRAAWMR
UniProt O60563, whole entry partner: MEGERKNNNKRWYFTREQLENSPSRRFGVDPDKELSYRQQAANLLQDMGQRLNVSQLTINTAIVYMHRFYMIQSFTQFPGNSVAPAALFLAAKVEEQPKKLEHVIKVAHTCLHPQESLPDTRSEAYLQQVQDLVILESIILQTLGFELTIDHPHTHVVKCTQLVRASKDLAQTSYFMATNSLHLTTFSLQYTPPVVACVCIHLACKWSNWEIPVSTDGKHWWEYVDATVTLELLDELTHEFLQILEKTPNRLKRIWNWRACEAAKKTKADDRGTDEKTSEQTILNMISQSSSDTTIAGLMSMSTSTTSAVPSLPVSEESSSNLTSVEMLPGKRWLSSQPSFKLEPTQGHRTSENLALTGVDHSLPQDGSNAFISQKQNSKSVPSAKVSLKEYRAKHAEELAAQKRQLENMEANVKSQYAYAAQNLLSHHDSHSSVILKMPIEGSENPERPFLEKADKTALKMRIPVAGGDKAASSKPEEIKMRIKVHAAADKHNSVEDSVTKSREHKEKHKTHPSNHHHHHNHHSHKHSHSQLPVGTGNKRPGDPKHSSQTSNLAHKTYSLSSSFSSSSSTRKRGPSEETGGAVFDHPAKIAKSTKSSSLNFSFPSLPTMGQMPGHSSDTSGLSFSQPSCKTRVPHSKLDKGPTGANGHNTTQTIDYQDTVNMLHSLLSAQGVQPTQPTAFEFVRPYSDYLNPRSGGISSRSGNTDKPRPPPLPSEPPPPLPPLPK

Experiments:
CDK2/Cyclin E1 complex = CDK2/Cyclin E1 complex (Homo sapiens, UniProt P24941); test: CDK2 kinase inhibition assay (Caliper/LabChip EZ Reader); format: biochemical; details: read-out: CDK2 IC50; CDK2/Cyclin E1 0.5 nM, ATP 2 mM, 35 min at 27° C.
[1] = biological target: CDK7/Cyclin H/MAT1 complex (Homo sapiens, UniProt P50613); test: CDK7 kinase inhibition assay (Caliper/LabChip EZ Reader); format: biochemical; details: read-out: CDK7 IC50; CDK7/Cyclin H/MAT1 6 nM, ATP 2 mM, 35 min at 27° C.
CDK9/Cyclin T1 complex = CDK9/Cyclin T1 complex (Homo sapiens, UniProt P50750); test: CDK9 kinase inhibition assay (Caliper/LabChip EZ Reader); format: biochemical; details: read-out: CDK9 IC50; CDK9/Cyclin T1 8 nM, ATP 2 mM, 15 min at 27° C.
[2] = biological target: CDK12 (aa686-1082)/Cyclin K complex (Homo sapiens, UniProt Q9NYV4); test: CDK12 kinase inhibition assay (Caliper/LabChip EZ Reader); format: biochemical; details: read-out: CDK12 IC50; CDK12 (aa686-1082)/Cyclin K 50 nM, ATP 2 mM, 3 hr at 27° C.
HCC70 cells = test: Inhibition of proliferation of HCC70 cells (CyQUANT Direct, 72 hour); details: read-out: Inhibition of Proliferation of HCC70 Cells (calculated IC50)
A673 cells = test: Inhibition of proliferation of A673 cells (CyQUANT, 72 hour); details: read-out: Inhibition of Proliferation of A673 Cells (calculated IC50)

Which IC50 (CDK2/Cyclin E1 complex) does the source give for `FC(F)(F)c1cnc(N[C@H]2CCC3(CCCCC3)NC2)nc1-c1c[nH]c2ccccc12` here?
The IC50 was 200 to 5000 nM.

What about the IC50 [1] of the same molecule?
The IC50 was 20 to 200 nM.

And the IC50 (CDK9/Cyclin T1 complex)?
The IC50 was 200 to 5000 nM.

What about the IC50 [2] of the same molecule?
Its IC50 is 200 to 5000 nM.

How did the IC50 (CDK2/Cyclin E1 complex) turn out when `Cc1noc(C2CCC(Nc3ncc(C(F)(F)F)c(-c4c[nH]c5cc(C#N)ccc45)n3)CN2)n1` (stereo not drawn) was run?
Its IC50 is > 5000 nM.

And the IC50 [1]?
Its IC50 is 20 to 200 nM.

What about the IC50 (CDK9/Cyclin T1 complex) of the same molecule?
Its IC50 is > 5000 nM.

What about the IC50 [2] of the same molecule?
Its IC50 is > 5000 nM.

What about the IC50 (HCC70 cells) of the same molecule?
The IC50 was 100 to 1000 nM.

Which results are given for `C=CC(=O)N1CCC(CO[C@H]2CNC[C@@H](Nc3ncc(C(F)(F)F)c(-c4c[nH]c5c(S(C)(=O)=O)cccc45)n3)C2)CC1`?
IC50 (CDK2/Cyclin E1 complex): > 5000 nM; IC50 [1]: 20 to 200 nM; IC50 (CDK9/Cyclin T1 complex): > 5000 nM; IC50 [2]: 200 to 5000 nM; IC50 (A673 cells): < 20 nM; IC50 (HCC70 cells): 100 to 1000 nM

What does the source list for `CCC(=O)N[C@H]1CNC[C@@H](Nc2ncc(C(F)(F)F)c(-c3c[nH]c4c(S(C)(=O)=O)cccc34)n2)C1`?
IC50 (CDK2/Cyclin E1 complex): > 5000 nM; IC50 [1]: 200 to 5000 nM; IC50 (CDK9/Cyclin T1 complex): > 5000 nM; IC50 [2]: > 5000 nM

`FC(F)(F)c1cnc(N[C@H]2CCCNC2)nc1-c1c[nH]c2cc(-c3ccc4c[nH]nc4c3)ccc12` was tested. Which IC50 [1] did it give?
The IC50 was 20 to 200 nM.

And the IC50 [2]?
Its IC50 is 200 to 5000 nM.

What about the IC50 (HCC70 cells) of the same molecule?
The IC50 was 100 to 1000 nM.

Which IC50 (CDK2/Cyclin E1 complex) does the source give for `CNC(=O)[C@H]1CNC[C@H](Nc2ncc(C(F)(F)F)c(-c3c[nH]c4ccccc34)n2)C1` here?
The IC50 was 200 to 5000 nM.

What about the IC50 [1] of the same molecule?
The IC50 was < 20 nM.

What about the IC50 (CDK9/Cyclin T1 complex) of the same molecule?
Its IC50 is 200 to 5000 nM.

What about the IC50 [2] of the same molecule?
Its IC50 is 200 to 5000 nM.

And the IC50 (A673 cells)?
The IC50 was 20 to 200 nM.
